Screening data: PubChem, ICCB-Longwood Screening Facility, Harvard Medical School
The full list was thinned out, with hits kept by preference.
GIV Gai3 FP: inhibitors of GIV peptide binding to Galpha-i3, primary screen, biochemical, fluorescence polarization, FITC-GIV GBA peptide, rat Galphai3 | 90 min; stronger effect = lower value; scaled: aluminum fluoride 0%, vehicle 100% | AID 1224905, 2016 | 210,000 compounds, 0.42% hits | percent of control (FP), % (concentration not given with the values) | Guanine nucleotide-binding protein G(i) subunit alpha-3 (Rattus norvegicus), P08753;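 active = replicate mean at 85% of control or lower, very high polarization wells dropped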;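 note: wells of about 15 µL received 100 nL stock; the first replicate is given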
GIV-Gai FP conf: confirmation of inhibitors of GIV binding to rat Galpha-i3. FITC-GIV peptide binding to Galphai3, fluorescence polarization; hits give low values. shares compounds with GIV Gai3 FP. AID 1259350. 38% of 580 active. fluorescence polarization, mP at 100 µM;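 active = inhibition score of 15 or more, meaning 100 minus mean polarization as percent of control over three replicates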;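 note: lower mP means peptide displaced from Galphai3 so more inhibition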
GIV-Gai AS conf: confirmation of inhibitors of GIV binding to human Galpha-i3. 39% of 580 active. shares compounds with GIV Gai3 FP. AlphaScreen Galphai3-GIV binding, purified proteins, 90 min; hits give low values. AID 1259351. AlphaScreen counts at 100 µM;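 active = inhibition score at or above a set limit, where the score is 100 minus the three-replicate mean percent of control signal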
Numbers without * were called inactive.

Sequences of proteins named here, by UniProt entry; tags and fusion partners are left off.
Guanine nucleotide-binding protein G(i) subunit alpha-3 (Rattus norvegicus), P08753, UniProt P08753, whole entry, looked up: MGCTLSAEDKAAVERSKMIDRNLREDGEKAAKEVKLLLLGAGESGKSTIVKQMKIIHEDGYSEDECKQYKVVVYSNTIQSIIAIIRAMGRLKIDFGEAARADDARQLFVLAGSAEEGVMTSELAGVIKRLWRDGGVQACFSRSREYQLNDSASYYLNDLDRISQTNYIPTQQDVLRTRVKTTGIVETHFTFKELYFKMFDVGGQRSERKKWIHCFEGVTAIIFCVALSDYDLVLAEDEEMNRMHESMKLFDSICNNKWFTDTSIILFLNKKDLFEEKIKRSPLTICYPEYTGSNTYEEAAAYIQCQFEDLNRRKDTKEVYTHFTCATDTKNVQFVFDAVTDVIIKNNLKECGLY

SMILES | GIV Gai3 FP | others
O=C(Cn1c(=O)c2ccccc2n2c(=S)sc(-c3ccccc3F)c12)N1CCCC1 | 111.9
c1ccc(-c2cc(N3CCOCC3)n3cnnc3n2)cc1 | 109.4
COc1ccc(NC(=O)c2ccccc2Cl)cc1CN1CCn2c(nc3ccccc32)C1 | 95.9
Cc1cc(C)cc(NC(=O)N2CCCC2c2cc(C(C)C)on2)c1 (stereo unspecified) | 102.4
Cc1ccccc1-c1noc(CSc2ccc(-c3ccccc3)nn2)n1 | 111.3
O=C(Nc1ccc(F)c(Cl)c1)N1CCN(Cc2nc3cccnc3n2-c2cccc(F)c2)CC1 | 104.7
COc1ccccc1NC(=O)Nc1nnc(N2CC(C)CC(C)C2)s1 (stereo unspecified) | 105.7
CCN(CC)c1ccc(C(=O)N2CCN(c3cc(=O)n(C)c(=O)n3C)CC2)cc1 | 101.1
CCOC(=O)c1noc2ncn(CC(=O)N(CC)CC)c(=O)c12 | 107.5
CCOC(=O)c1c2c3c(c(Cl)ccc3[nH]c1=O)C(=O)c1ccccc1-2 | 95.0
CCOc1ccc(NC(=O)Cc2c(C(=O)O)[nH]c3ccccc23)cc1 | 98.6
CCOc1ccc(Nc2c3c4c(cccc4[nH]c2=O)C(=O)c2ccccc2-3)cc1 | 32.1* | GIV-Gai FP conf=28*;GIV-Gai AS conf=39358
Cc1nn(-c2ccc3nnc(C)n3n2)c2c1C(c1cccc(OCc3ccccc3Cl)c1)CC(=O)N2 (stereo unspecified) | 128.8
CC(C)(C)c1cc2cccnc2[nH]1 | 101.7
Cc1ccc(S(=O)(=O)c2nc(S(=O)(=O)c3ccccc3)sc2N2CCCC2)cc1 | 103.8
Cc1ccccc1-c1nn2c(=O)cc(N3CCN(C(=O)Nc4cccc(F)c4)CC3)nc2s1 | 87.8 | GIV-Gai FP conf=80.5;GIV-Gai AS conf=28810
Cc1ccccc1-c1nn2c(=O)cc(N3CCN(C(=O)Nc4cccc(Cl)c4)CC3)nc2s1 | 102.7
Cc1ccccc1-c1nn2c(=O)cc(N3CCN(C(=O)Nc4ccccc4)CC3)nc2s1 | 96.7
Cc1cccc(NC(=O)N2CCN(c3cc(=O)n4nc(-c5cccc(C)c5)sc4n3)CC2)c1 | 87.3 | GIV-Gai FP conf=80.9;GIV-Gai AS conf=25822
Cc1cccc(-c2nn3c(=O)cc(N4CCN(C(=O)Nc5ccc6c(c5)OCO6)CC4)nc3s2)c1 | 102.0

Grouped by structure: those above containing an NH in an aromatic ring (four)
SMILES | GIV Gai3 FP | others
CCOC(=O)c1c2c3c(c(Cl)ccc3[nH]c1=O)C(=O)c1ccccc1-2 | 95.0
CCOc1ccc(NC(=O)Cc2c(C(=O)O)[nH]c3ccccc23)cc1 | 98.6
CCOc1ccc(Nc2c3c4c(cccc4[nH]c2=O)C(=O)c2ccccc2-3)cc1 | 32.1* | GIV-Gai FP conf=28*;GIV-Gai AS conf=39358
CC(C)(C)c1cc2cccnc2[nH]1 | 101.7

The listing continues.
SMILES | GIV Gai3 FP | others
Cc1ccc(NC(=O)N2CCN(c3cc(=O)n4nc(-c5ccccc5C)sc4n3)CC2)cc1 | 104.6
Cc1ccc(-c2csc(-c3cccnc3)n2)c(C)c1 | 106.4
CCC(NC(=O)Nc1ccc(C)cc1)c1c(-n2cccc2)sc2c1CCN(C)C2 (stereo unspecified) | 119.0
O=C1c2ccccc2NC(c2cccs2)N1CCCN1CCOCC1 (stereo unspecified) | 101.4
Cc1ccc(C(=O)N2c3ccccc3N=C(c3ccc(Br)cc3)CC2c2ccccc2)cc1 (stereo unspecified) | 115.4
Cc1cc2nc3c(=O)n(C)c(=O)[nH]c3nc2cc1N=CN(C)C | 87.6 | GIV-Gai FP conf=11.5*;GIV-Gai AS conf=26021*
CC(=O)Nc1cc2nc3[nH]c(=S)[nH]c(=O)c3nc2cc1C | 109.2
CCc1ccc(-n2nc3cc(C)c(NC(C)=O)cc3n2)cc1 | 101.9
CC(=O)Nc1cc2nc3[nH]c(=O)n(C)c(=O)c3nc2cc1C | 69.3* | GIV-Gai FP conf=52.5;GIV-Gai AS conf=35695
CN(C)c1ccc2nc3c(=O)n(CCc4ccccc4)c(=O)[nH]c3nc2c1 | 103.8
CCCCCCn1c(=O)[nH]c2nc3cc(N)c(C)cc3nc2c1=O | 111.2
COc1cc(OC)cc(C(=O)NCc2nnc(SCC(=O)N3N=C(c4cccs4)CC3c3ccc(F)cc3)n2C)c1 (stereo unspecified) | 101.2
COc1ccc(CSC(=N)N)cc1Cl | 100.0
COc1cccc(-n2c(SCC(=O)N3CCC(C)CC3)nc3c([nH]c4ccccc43)c2=O)c1 | 104.7
Cc1ccc(C)c(S(=O)(=O)Nc2cc(C(=O)O)cnc2N(C)C)c1 | 85.9 | GIV-Gai FP conf=59.8;GIV-Gai AS conf=26202*
CCN(CC)c1ncc(C(=O)O)cc1NS(=O)(=O)c1cc(C)cc(C)c1 | 80.5* | GIV-Gai FP conf=52.6;GIV-Gai AS conf=26287*
CCCCN(C)c1ncc(C(=O)O)cc1NS(=O)(=O)c1cc(C)cc(C)c1 | 107.3
CCN(Cc1ccccc1)c1ncc(C(=O)O)cc1NS(=O)(=O)c1cc(C)cc(C)c1 | 138.0
Cc1cc(C)c(S(=O)(=O)Nc2cc(C(=O)O)cnc2N(C)CCCc2c(C)nn(C)c2C)cc1C | 113.0
CCCCN(CC)c1ncc(C(=O)O)cc1NS(=O)(=O)c1cc(C)c(C)cc1C | 101.3
Cc1cc(-c2nnc3sc(COc4ccc(Br)cc4)nn23)n[nH]1 | 105.2
O=C(c1c(F)cccc1F)N1CCSCC1 | 105.9
O=c1cc(CN2CCOCC2)nc2nc(-c3ccc(F)cc3)[nH]n12 | 108.0
COc1ccc(S(=O)(=O)NCc2ccc(C(=O)N3CC(C)CC(C)C3)cc2)cc1 (stereo unspecified) | 106.0
CC1CCc2c(sc3nc(CCC(=O)N4CCCC4)[nH]c(=O)c23)C1 (stereo unspecified) | 96.8
Nc1ccc(N2CCOCC2)c(Br)c1 | 103.3
CCn1c2ccc(OC)cc2c2nc3ccccc3nc21 | 96.1
CCCCCn1c2ccccc2c2nc3ccccc3nc21 | 105.0
CCn1c2ccccc2c2nc3cc4ccccc4cc3nc21 | 44.0* | GIV-Gai FP conf=39*;GIV-Gai AS conf=55414
Cc1ccc(NC(=O)CCCn2nnc3ccccc3c2=O)nc1 | 101.0
O=c1oc2cc(O)cc(O)c2c2ccccc12 | 99.1
COc1ccc(-c2noc(CCC(=O)Nc3ccncc3)n2)cc1OC | 95.6
Cc1cccc(NC(=O)c2ccc3c(c2)N(C)C(=O)CO3)c1 | 96.2
CC(C)Nc1ncnc2scc(-c3ccccc3)c12 | 103.6
O=C(O)c1cccc(Nc2ncnc3scc(-c4ccccc4)c23)c1 | 71.8* | GIV-Gai FP conf=81.7;GIV-Gai AS conf=29755
NCCNc1ncnc2scc(-c3ccccc3)c12 | 98.4
CCCn1c(CN2CCN(CC)CC2)nc2cc(NC(C)=O)ccc21 | 98.4
O=C(NCCC1=CCCCC1)C1CCN(c2cncnc2N2CCOCC2)CC1 | 101.9
O=c1[nH]c(=O)c2nc3cc(C(F)(F)F)ccc3nc2[nH]1 | 86.4
Nc1nc2[nH]c(=O)[nH]c(=O)c2s1 | 112.4

Overlap with the part before: three entries; new compounds follow.
SMILES | GIV Gai3 FP | others
O=C(NCCC1=CCCCC1)C1CCN(c2cncnc2N2CCOCC2)CC1 | 101.9
O=c1[nH]c(=O)c2nc3cc(C(F)(F)F)ccc3nc2[nH]1 | 86.4
Nc1nc2[nH]c(=O)[nH]c(=O)c2s1 | 112.4
Nc1nc2nccnc2c(=O)[nH]1 | 100.9
O=c1[nH]c(=O)c2nc3ccc(Cl)cc3nc2[nH]1 | 102.8
CN(C)c1ccc2nc3c(=O)[nH]c(=O)[nH]c3nc2c1 | 77.0* | GIV-Gai FP conf=33*;GIV-Gai AS conf=14401*
Cc1cc2nc3c(=O)[nH]c(=O)[nH]c3nc2cc1N | 63.7* | GIV-Gai FP conf=46*;GIV-Gai AS conf=30002*
CC(=O)Nc1ccc2nc(N3CCC(C(=O)Nc4cccc(Cl)c4)CC3)cc(C)c2c1 | 105.0
O=C1c2ccccc2-c2nc3nonc3nc21 | 49.0* | GIV-Gai FP conf=44*;GIV-Gai AS conf=17911*
N#Cc1nc2c(nc1C#N)-c1ccccc1C2=O | 89.8
O=C1c2ccccc2-c2nc3ccccc3nc21 | 103.7
O=C(c1ccc(F)cc1)N1CCN(Cc2cc(=O)n3nc(-c4ccccc4F)sc3n2)CC1 | 95.7
COc1ccc(Cc2nnc(C(=O)NCc3ccccc3)o2)cc1OC | 103.2
CCCCC(=O)Nc1ccc2c(c1)nc(CN1CCN(C)CC1)n2CC | 112.0
CC1=CC(=C2N=C(c3ccccc3)OC2=O)C=C(C)O1 | 73.4* | GIV-Gai FP conf=71.6;GIV-Gai AS conf=40445
CC1=CC(=C2C(=O)c3ccccc3C2=O)C=C(C)O1 | 90.9
CC(C)=C1N=C(c2ccccc2)OC1=O | 112.1
OCc1nc2ccc(-c3ccc4nc(CO)[nH]c4c3)cc2[nH]1 | 102.2
